# scFv variants of Ab-14 (light chain) against a SARS-CoV-2 spike peptide

Source: Engelhart et al. 2022 (doi:10.1038/s41597-022-01779-4), MIT Lincoln Laboratory and A-Alpha Bio; data file from the FLAb repository.

Antigen: PDVDLGDISGINAS, a 14-residue peptide of the SARS-CoV-2 spike HR2 region.

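The parent was found by panning a naive human phage display library on the peptide. AAYL50 was designed without a model: most single CDR substitutions and a random sample of double and triple ones. The scFvs were displayed on barcoded MATa yeast, the peptide on MATalpha yeast. Mating (16 h, 30 °C) was followed by selection of diploids and sequencing of their barcodes. Read counts were normalised to the haploid input and turned into Kd by a linear fit to BCL2-family pairs of known affinity, for each replicate. There are three technical replicates.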

Parent: Ab-14, a human scFv built as VH, three GGGGS repeats, VL. Only the CDRs of the light chain vary.
VH: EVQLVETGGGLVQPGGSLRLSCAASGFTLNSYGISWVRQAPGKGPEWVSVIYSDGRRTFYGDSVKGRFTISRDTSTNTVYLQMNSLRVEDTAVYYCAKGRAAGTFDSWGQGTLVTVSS
VL: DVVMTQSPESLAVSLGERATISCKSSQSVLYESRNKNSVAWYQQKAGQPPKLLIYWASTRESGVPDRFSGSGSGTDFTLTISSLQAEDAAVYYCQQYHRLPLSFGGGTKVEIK

Substitutions are numbered in sequence along the VL above, starting at 1 (not Kabat).
Scale: log10 of Kd in nM, estimated from mating counts; low values are strong binders.
A mean of the replicates is given; it leaves out those without a signal.
"nd" marks a missing value. The strain was present, yet no cells mated with the target were sequenced in any replicate, which points to weak or no binding.
Entries are sorted by rising average, undetected variants last.
Background: pairings of library AAYL50 with three empty control strains gave a value in 18% of cases (median 4.19, 5th percentile 2.99). Values in that range, when seen in few replicates, are hard to tell from nonspecific mating.
In this assay the parent's reference entry averaged 0.65; its copy inside this library read 1.68.

| # | changes | log10 Kd (nM), mean | detected |
|---|---|---|---|
| 1 | Q27E W56A P101V | -0.21 | 3/3 |
| 2 | S26K W56E E61W | 0.07 | 3/3 |
| 3 | W56G R99G L100S | 0.31 | 3/3 |
| 4 | Q27M Y31L N37G | 0.36 | 3/3 |
| 5 | V29I K36Y L102F | 0.80 | 3/3 |
| 6 | V29C L30H S62N | 0.92 | 3/3 |
| 7 | S28Q K36M S62V | 0.96 | 3/3 |
| 8 | Q27M V39M S62K | 0.99 | 3/3 |
| 9 | E32P S103Y | 1.06 | 3/3 |
| 10 | S28D L30E S103E | 1.10 | 3/3 |
| 11 | Y31L S38D Q96M | 1.15 | 3/3 |
| 12 | S26Q T59V L102I | 1.28 | 3/3 |
| 13 | L30T N37E S62C | 1.41 | 3/3 |
| 14 | Q27P S33G T59N | 1.51 | 3/3 |
| 15 | S25G S28P L30V | 1.60 | 3/3 |
| 16 | S28E N37A S58K | 2.25 | 3/3 |
| 17 | S26C H98K P101T | 2.26 | 1/3 |
| 18 | E32Y Q95K L100G | 2.30 | 3/3 |
| 19 | A57S E61W | 2.32 | 3/3 |
| 20 | V29Y R99N | 2.53 | 3/3 |
| 21 | N35C T59I E61P | 2.86 | 3/3 |
| 22 | S26K Y31V S62K | 2.90 | 3/3 |
| 23 | K36M N37P E61W | 2.97 | 3/3 |
| 24 | S58C S62W | 3.00 | 3/3 |
| 25 | A40R Q96F L100I | 3.29 | 1/3 |
| 26 | S25L S26I L100Q | 3.44 | 2/3 |
| 27 | S26T N37K P101K | 3.55 | 1/3 |
| 28 | K36R W56S Y97D | 3.55 | 2/3 |
| 29 | S26G S33L S62T | 3.63 | 1/3 |

The remaining entries, values ahead:

| # | log10 Kd (nM), mean | detected | changes |
|---|---|---|---|
| 30 | 3.65 | 2/3 | S26K Y31G R60H |
| 31 | 3.83 | 2/3 | S33M S38N Q95Y |
| 32 | 3.96 | 2/3 | K24P S33K P101H |
| 33 | 3.98 | 1/3 | N37M V39S T59V |
| 34 | 3.99 | 1/3 | A40E R60H E61L |
| 35 | 4.04 | 3/3 | Y31E S33N Q96V |
| 36 | 4.08 | 1/3 | T59C E61D L102Q |
| 37 | 4.30 | 2/3 | K36H W56D L102T |
| 38 | 4.54 | 2/3 | Y31Q S58P L102R |
| 39 | 4.74 | 3/3 | V39K T59A L100R |
| 40 | 5.12 | 2/3 | Q27G N37F R60G |
| 41 | 5.72 | 2/3 | E32N A57R T59H |
| 42 | 5.72 | 1/3 | S25E A40I R99M |
| 43 | 5.88 | 1/3 | N35Y P101Y S103A |
| 44 | 6.71 | 1/3 | S25Y T59F R60P |
| 45 | nd | 0/3 | E32W A57Y S103F |
| 46 | nd | 0/3 | L30F N37M T59E |
| 47 | nd | 0/3 | S28I L100F L102Q |
| 48 | nd | 0/3 | V39Q E61T R99W |
| 49 | nd | 0/3 | N35V V39K L102T |
| 50 | nd | 0/3 | E32T K36S S103Y |
| 51 | nd | 0/3 | S33I N35E L100R |
| 52 | nd | 0/3 | S28W N35Y Q95W |
| 53 | nd | 0/3 | N37D V39Q A57Q |
| 54 | nd | 0/3 | R34Y A40M L100E |
| 55 | nd | 0/3 | N35A T59Y Y97Q |
| 56 | nd | 0/3 | S26F A40K Q96Y |
| 57 | nd | 0/3 | S28E A40F S62I |
| 58 | nd | 0/3 | K24H Q96S P101G |